Measurements reported in ChEMBL document CHEMBL1156908, “Characterization of tunable piperidine and piperazine carbamates as inhibitors of endocannabinoid hydrolases” (J Med Chem, 2010).

Protein sequences, listed by entry. Tags and fused reporters are not part of them.
UniProt O35678, whole entry: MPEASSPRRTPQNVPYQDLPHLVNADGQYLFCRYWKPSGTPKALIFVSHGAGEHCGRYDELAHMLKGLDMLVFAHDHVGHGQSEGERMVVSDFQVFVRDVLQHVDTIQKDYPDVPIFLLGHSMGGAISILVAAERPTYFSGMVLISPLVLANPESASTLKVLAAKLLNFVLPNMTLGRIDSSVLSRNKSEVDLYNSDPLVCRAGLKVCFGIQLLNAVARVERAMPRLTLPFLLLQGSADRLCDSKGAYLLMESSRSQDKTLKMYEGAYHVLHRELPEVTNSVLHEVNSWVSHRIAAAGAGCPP

Target: Monoglyceride lipase (Mus musculus, UniProt O35678)
Assay: Inhibition of MAGL in mouse brain membrane
Assay type: cell membranes
Method in brief: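 Mouse brain membrane fraction (Dounce homogenized in PBS pH 7.5, 1,400 × g debris spin, 64,000 × g 45 min pellet, resuspended) at 1 mg/ml in PBS. Inhibitor preincubated 30 min at 37°C, then FP-rhodamine 1 μM final for 30 min at 25°C. SDS-PAGE with in-gel fluorescence scanning. IC50 from fitted integrated band intensities, mean of at least triplicates.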

`O=C(Oc1ccc([N+](=O)[O-])cc1)N1CCN(Cc2cccc(Oc3ccccc3)c2)CC1` gave an IC50 of 19 nM.
